The target of this assay is sNASPc-GGGSGGGS-ASF1b HBD (human) (UniProt P49321). Nature of the assay: SEC-MALS; co-expressed and co-purified covalent sNASPc-8G-ASF1b–H3–H4 heterotetramer, 20 mM Tris pH 7.5, 0.5 M NaCl. For orientation: In gel filtration, larger molecules generally elute earlier.

Take “histone H3.3 (in the sNASPc-8G-ASF1b–H3–H4 heterotetramer) (from UniProt P84243 2-136) (natural protein)”: the stoichiometry N (commonly the number of molecules, sites or subunits per partner or assembly) worked out at 1.

Substance “histone H4 (in the sNASPc-8G-ASF1b–H3–H4 heterotetramer) (from UniProt P62805 2-103) (natural protein)” registered a stoichiometry N of 1.

The record behind these values is PMC9122598, “NASP maintains histone H3–H4 homeostasis through two distinct H3 binding modes” (Nucleic Acids Research, 2022).
